This passage reports kinact/KI results from US5587373A, “2-acyloxycephem derivatives” (Farmitalia Carlo Erba S.r.l., priority 1993, dated 1996).

Molecules are shown by their SMILES.

The assay deals with T1, human leucocyte elastase (HLE) (Homo sapiens, UniProt P08246).
T1 construct: purchased Calbiochem
T1 sequence (P08246 30-267): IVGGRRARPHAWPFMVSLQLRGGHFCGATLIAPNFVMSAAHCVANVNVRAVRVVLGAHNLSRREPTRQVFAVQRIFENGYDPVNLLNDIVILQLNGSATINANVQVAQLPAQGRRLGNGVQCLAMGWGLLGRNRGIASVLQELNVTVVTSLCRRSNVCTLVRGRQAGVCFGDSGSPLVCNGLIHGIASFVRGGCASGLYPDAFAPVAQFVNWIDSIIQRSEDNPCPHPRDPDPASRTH
Briefly: HLE (human leucocyte elastase) inhibition kinetics. Type of assay: biochemical. The note with it: Table 2; rate of formation of the HLE-inhibitor complex; 37° C., pH 7.4; read-out: "Efficacy" K5 /Ki. The text has this:
Vs =steady state rate Vz =zero time rate Vo =rate at [I]=0 Km =Michaelis constant for the enzyme substrate pair (independently determined under the same experimental conditions). Full details of the Experimental Protocol are reported in […] et al., Eur. J. Med. Chem. 1992, 27, 875-890.

With `CO[C@H]1C(=O)N2C(C(=O)C(C)(C)C)=C(C)C(OC(=O)c3ccccc3)S(=O)(=O)[C@H]12` (stereo partly drawn) [Compound 2, 2-Benzoyloxy-4-tert-butylcarbonyl-7α-methoxy-3-methyl-3-cephem 1,1-dioxide], the kinact/KI worked out at 1.5e+06 M⁻¹ s⁻¹.
